Six compounds from ChEMBL document CHEMBL5154800, “Identification of N, C-capped di- and tripeptides as selective immunoproteasome inhibitors” (Eur J Med Chem, 2022) can be followed below.

The nature of this test: Selectivity ratio of IC50 for inhibition of 20S proteasome beta 5c subunit (unknown origin) to IC50 for inhibition of 20S proteasome subunit beta-5i.
For `Cc1ccc(CNC(=O)[C@H](Cc2ccccc2)NC(=O)[C@H](CCC(=O)NC(C)(C)C)NC(=O)[C@H](CNC(=O)CCl)NC(=O)CCCc2ccccc2)cc1`, the Ratio IC50 amounted to 8. For the compound `Cc1ccc(CNC(=O)[C@H](Cc2ccc([N+](=O)[O-])cc2)NC(=O)[C@H](CCC(=O)NC(C)(C)C)NC(=O)CCNC(=O)CCl)cc1`, the Ratio IC50 came to 12. As to `Cc1ccc(CNC(=O)[C@H](Cc2ccccc2)NC(=O)[C@H](CCC(=O)NC(C)(C)C)NC(=O)[C@H](CNC(=O)CCl)NC(=O)c2cc(C)on2)cc1`, the Ratio IC50 was determined as 4. Take `Cc1ccc(CNC(=O)[C@H](Cc2ccccc2)NC(=O)[C@H](CCC(=O)NC(C)(C)C)NC(=O)CCNC(=O)/C(C#N)=C/c2ccco2)cc1`: the Ratio IC50 came to 2. Consider `Cc1ccc(CNC(=O)[C@H](Cc2ccc3ccccc3c2)NC(=O)[C@H](CCC(=O)NC(C)(C)C)NC(=O)CCNC(=O)CCl)cc1`, for which the Ratio IC50 was determined as 60. Take `Cc1ccc(CNC(=O)[C@H](Cc2ccccc2)NC(=O)[C@H](CCC(=O)NC(C)(C)C)NC(=O)[C@H](CNC(=O)CCl)NS(=O)(=O)c2ccc(C)cc2)cc1`: the Ratio IC50 was determined as 5.
